Results published in ChEMBL document CHEMBL1134881, “3-Pyrroline containing arylacetamides: a novel series of remarkably selective kappa-agonists” (2002).

Each molecule was assayed on Mus musculus (assay: Effective intraperitoneal dose required for the analgesic activity in in vitro mouse hot plate assay).
CC(C)[C@@H](CN1CC=CC1)N(C)C(=O)Cc1ccc([N+](=O)[O-])cc1 was tested, and the ED50 was 0.17 mg/kg. Work on CSCC[C@@H](CN1CC=CC1)N(C)C(=O)Cc1ccc(Cl)c(Cl)c1 yielded an ED50 of 0.18 mg/kg. With CSCC[C@@H](CN1CC=CC1)N(C)C(=O)Cc1ccc(Br)cc1 the ED50 was 2.36 mg/kg. CSCC[C@@H](CN1CC=CC1)N(C)C(=O)Cc1ccc([N+](=O)[O-])cc1 was tested, and the ED50 was 2 mg/kg. CC(C)[C@@H](CN1CC=CC1)N(C)C(=O)Cc1ccc(Cl)c(Cl)c1 showed an ED50 of 0.023 mg/kg. For CC(C)[C@@H](CN1CC=CC1)N(C)C(=O)Cc1ccc(Cl)cc1, the ED50 was 0.25 mg/kg. Work on COc1ccc(CC(=O)N(C)[C@H](CN2CC=CC2)C(C)C)cc1 yielded an ED50 of 2.57 mg/kg. For COc1ccc(CC(=O)N(C)[C@@H](CCSC)CN2CC=CC2)cc1, the ED50 was > 10 mg/kg. Molecule CSCC[C@@H](CN1CC=CC1)N(C)C(=O)Cc1ccc(Cl)cc1 has an ED50 of 2.13 mg/kg. Work on CC(C)[C@@H](CN1CC=CC1)N(C)C(=O)Cc1ccc(Br)cc1 yielded an ED50 of 0.18 mg/kg. CC(C)[C@@H](CN1CC=CC1)N(C)C(=O)Cc1ccc(F)cc1 was tested, and the ED50 was 1.16 mg/kg. For CSCC[C@@H](CN1CC=CC1)N(C)C(=O)Cc1ccc(F)cc1, the ED50 was ≥ 10 mg/kg.
